# Measured properties of organic chemicals

The melting point is given in degrees Celsius.
Boiling points are in °C, nominally at 760 mmHg.
logP is the log10 of the octanol-water partition coefficient; higher is more lipophilic.
Solubility in water is on a log10 molar scale (set defined at 25 °C).
Vapor pressure is log10 of mmHg; the set covers 15 to 30 °C, mostly 20 to 25 °C.
Henry's law constant (air-water partitioning) is log10 of atm·m3/mol, nominally at 25 °C.
The unbound fraction in human plasma runs from 0 (all bound) to 1 (all free).
Clint is human hepatic intrinsic clearance in µL/min per million cells; 0 means that no clearance was seen.

{"smiles": "C[C@H]1CC[C@@]2(O)C(C)(C)[C@@H]3CC[C@@]2(C)[C@H]1C3", "logP": "5.5", "log S (log10 mol/L)": "-3.726", "log VP (log10 mmHg)": "-2.979"}
{"smiles": "Cc1nccn1C", "name": "1H-Imidazole, 1,2-dimethyl-", "logP": "0.11", "log VP (log10 mmHg)": "-0.687"}
{"smiles": "COC(=O)CCC(=O)CN", "name": "Methyl aminolevulinate", "logP": "-1.2", "log S (log10 mol/L)": "0.181"}
{"smiles": "Cc1cccc(C)c1OCC(=O)O", "name": "Acetic acid, (2,6-dimethylphenoxy)- (9CI)", "logP": "0.91", "log VP (log10 mmHg)": "-6.118"}
{"smiles": "CCCCCCCCCCCCCCCC[N+](C)(C)Cc1ccccc1.[Cl-]", "name": "Benzylhexadecyldimethylammonium chloride", "mp (°C)": "112.5", "logP": "3.321"}
{"smiles": "C[C@]12CC[C@H]3C(=CCc4cc(O)ccc43)[C@@H]1CCC2=O", "name": "Equilin", "fu": "0.0583", "Clint (µL/min/10^6 cells)": "9.74"}
{"smiles": "CC(C)(C)OC(=O)N1CCN(c2ccc(N)nc2)CC1", "name": "Tert-butyl 4-(6-aminopyridin-3-yl)piperazine-1-carboxylate", "mp (°C)": "133", "log VP (log10 mmHg)": "-6.975"}
{"smiles": "Cn1nnc2c(C(N)=O)ncn2c1=O", "name": "Temozolomide", "logP": "-2.8", "fu": "0.85"}
{"smiles": "COC(=O)CC(OC)c1ccc(OC)cc1", "stereo": "configuration not stated", "name": "Methyl beta,4-dimethoxybenzenepropanoate", "mp (°C)": "15.7", "logP": "1.89", "log S (log10 mol/L)": "-2.343", "log VP (log10 mmHg)": "-3.949"}
{"smiles": "O=C(O)CC(C(=O)O)C(O)C(=O)O", "stereo": "configuration not stated", "name": "3-Carboxy-2,3-dideoxypentaric acid", "mp (°C)": "163.5", "log S (log10 mol/L)": "0.385"}
{"smiles": "CC(C)(C)c1cc(CO)cc(C(C)(C)C)c1O", "name": "2,6-Di-tert-butyl-4-(hydroxymethyl)phenol", "logP": "3.16", "log S (log10 mol/L)": "-4.013"}
{"smiles": "O=S(=O)([O-])CCCSc1nc2ccccc2s1.[Na+]", "mp (°C)": "320", "logP": "-1.7"}
{"smiles": "CCCOc1ccc([C@H]2CC[C@H]([C@H]3CC[C@H](CCC)CC3)CC2)c(F)c1F", "mp (°C)": "170", "log S (log10 mol/L)": "-6.624", "log VP (log10 mmHg)": "-7.643"}
{"smiles": "CC(=O)OC(C)(C)C1CC=C(C)CC1", "stereo": "configuration not stated", "name": "alpha-Terpinyl acetate", "log S (log10 mol/L)": "-3.931", "log VP (log10 mmHg)": "-1.367"}
{"smiles": "COC(=O)CCc1cc(-n2nc3ccccc3n2)c(O)c(C(C)(C)C)c1", "mp (°C)": "120.4", "logP": "5.1", "log VP (log10 mmHg)": "-7.87"}
{"smiles": "NC(=O)c1ccc(Cl)c(N)c1", "name": "Benzamide, 3-amino-4-chloro-", "logP": "0.95", "log S (log10 mol/L)": "-1.977"}
{"smiles": "NS(=O)(=O)Cc1noc2ccccc12", "name": "Zonisamide", "logP": "0.5", "log S (log10 mol/L)": "-2.007", "fu": "0.6"}
{"smiles": "C=CC(F)(F)C(F)(F)C(F)(F)C(F)(F)C(F)(F)C(F)(F)F", "name": "(Perfluorohexyl)ethylene", "logP": "4.9", "log S (log10 mol/L)": "-5.456"}
{"smiles": "c1ccc(-c2nnc(-c3ccc(-c4nnc(-c5ccccc5)c(-c5ccccc5)n4)cc3)nc2-c2ccccc2)cc1", "mp (°C)": "321", "logP": "10.5"}
{"smiles": "CC(CC(C)C)=NNC(=O)c1cc2ccccc2cc1O", "name": "N'-(1,3-Dimethylbutylidene)-3-hydroxy-2-naphthohydrazide", "mp (°C)": "149.9", "log S (log10 mol/L)": "-4.813"}
{"smiles": "C=C(C)C(=O)Oc1ccc(C(=O)c2ccccc2)cc1", "name": "4-Benzoylphenyl methacrylate", "mp (°C)": "70", "logP": "3.6", "log S (log10 mol/L)": "-4.823"}
{"smiles": "Cc1ncc(CN)c(N)n1", "name": "2-Methyl-4-amino-5-aminomethylpyrimidine", "logP": "-2.27", "log VP (log10 mmHg)": "-3.955"}
{"smiles": "O=C1NCCN1", "name": "Ethylene urea", "logP": "-0.95", "log VP (log10 mmHg)": "-4.777", "Henry's law constant (log10 atm·m3/mol)": "-10.87"}
{"smiles": "O=C1CCCCCN1C(=O)NCCCCCCNC(=O)N1CCCCCC1=O", "mp (°C)": "85.55", "logP": "2.702", "log S (log10 mol/L)": "-3.906", "log VP (log10 mmHg)": "-9.773"}
{"smiles": "CCCCCCCCC/C=C/C=O", "name": "(E)-Dodec-2-en-1-al", "mp (°C)": "5.5", "logP": "4.892", "log S (log10 mol/L)": "-4.754", "log VP (log10 mmHg)": "-0.66"}
{"smiles": "CC(C=O)=Cc1ccccc1", "name": "2-Methylcinnamic aldehyde", "logP": "2.471", "log S (log10 mol/L)": "-2.397"}
{"smiles": "CC(=O)On1ccccc1=O", "bp (°C)": "303", "log VP (log10 mmHg)": "-3.997"}
{"smiles": "CCC(=O)CC(C)(C)c1ccccc1", "name": "5-Methyl-5-phenylhexan-3-one", "bp (°C)": "258.9", "logP": "3.5", "log S (log10 mol/L)": "-3.302", "log VP (log10 mmHg)": "-1.828"}
{"smiles": "CON=C(Cc1cccnc1)c1ccc(Cl)cc1Cl", "name": "Pyrifenox", "bp (°C)": "212", "log S (log10 mol/L)": "-3.141", "Henry's law constant (log10 atm·m3/mol)": "-7.242"}
{"smiles": "CCCC(C)C1OCC(C)(CCC)CO1", "stereo": "configuration not stated", "name": "1,3-Dioxane, 5-methyl-2-(1-methylbutyl)-5-propyl-", "logP": "5.745", "log S (log10 mol/L)": "-4.316", "log VP (log10 mmHg)": "-1.507"}

Extract of 4 entries:

{"smiles": "CC(C)(C)OC(=O)N1CCN(c2ccc(N)nc2)CC1", "name": "Tert-butyl 4-(6-aminopyridin-3-yl)piperazine-1-carboxylate", "mp (°C)": "133", "log VP (log10 mmHg)": "-6.975"}
{"smiles": "CC(CC(C)C)=NNC(=O)c1cc2ccccc2cc1O", "name": "N'-(1,3-Dimethylbutylidene)-3-hydroxy-2-naphthohydrazide", "mp (°C)": "149.9", "log S (log10 mol/L)": "-4.813"}
{"smiles": "O=C1NCCN1", "name": "Ethylene urea", "logP": "-0.95", "log VP (log10 mmHg)": "-4.777", "Henry's law constant (log10 atm·m3/mol)": "-10.87"}
{"smiles": "CCCC(C)C1OCC(C)(CCC)CO1", "stereo": "configuration not stated", "name": "1,3-Dioxane, 5-methyl-2-(1-methylbutyl)-5-propyl-", "logP": "5.745", "log S (log10 mol/L)": "-4.316", "log VP (log10 mmHg)": "-1.507"}

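The OPERA project collected these measurements from public sources as training and test data for property models. The files give a single number for a compound and property, which may rest on several reports. Conditions of the individual experiments are not part of the data. The measured form (salt, isomer or mixture) is not always the one drawn. Some upstream entries may be estimates or bounds without being marked so.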

Source: data files of OPERA 2.9 (Mansouri et al.), github.com/kmansouri/OPERA.